Assay results published in PubChem BioAssay (NCI).
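Values below derive from 48-hour exposures of cells grown in 96-well plates, with endpoints linearly interpolated between the two concentrations bracketing the appropriate inhibition level. GI50: concentration for 50% inhibition of growth. At the TGI there is no net growth.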

Key:
Experiment in all cases: NCI tumour cell line growth inhibition, 48 h
[1] = system: KM12 colon
[2] = system: SR leukemia
[3] = system: ACHN renal
[4] = system: SNB-75 CNS
[5] = system: MDA-MB-435
[6] = system: 786-0 renal
[7] = system: RXF 393 renal
[8] = system: MDA-N
[9] = system: T-47D breast
[10] = system: SNB-19 CNS
[11] = system: SK-MEL-2 melanoma
[12] = system: OVCAR-4 ovarian
[13] = system: SK-MEL-28 melanoma
[14] = system: MDA-MB-231 breast
[15] = system: COLO 205 colon
[16] = system: A549 NSCLC
[17] = system: NCI-H23 lung
[18] = system: BT-549 breast
[19] = system: SF-295 CNS
[20] = system: SN12C renal
[21] = system: NCI-H226 lung
[22] = system: SW-620 colon
[23] = system: LOX IMVI melanoma
[24] = system: HCT-116 colon
[25] = system: CCRF-CEM leukemia
[26] = system: HCT-15 colon
[27] = system: NCI-H460 lung
[28] = system: HCC-2998 colon
[29] = system: UACC-62 melanoma
[30] = system: MCF7 breast
[31] = system: OVCAR-8 ovarian
[32] = system: DU-145 prostate
[33] = system: U251 CNS
[34] = system: EKVX NSCLC
[35] = system: HOP-92 NSCLC
[36] = system: SK-MEL-5 melanoma
[37] = system: IGROV1 ovarian
[38] = system: TK-10 renal
[39] = system: UO-31 renal
[40] = system: MALME-3M melanoma
[41] = system: SF-268 CNS
[42] = system: HOP-62 NSCLC
[43] = system: CAKI-1 renal
[44] = system: UACC-257 melanoma
[45] = system: PC-3 prostate
[46] = system: HS 578T breast
[47] = system: HT29 colon
[48] = system: NCI-H322M lung
[49] = system: MOLT-4 leukemia
[50] = system: NCI/ADR-RES ovarian

Q: Which results are given for CCOP(OCC)c1cn(CCCC(=O)O)nn1?
A: GI50 [1]: > 100 µM; TGI [1]: > 100 µM; GI50 [2]: > 100 µM; TGI [2]: > 100 µM; GI50 [3]: > 100 µM; TGI [3]: > 100 µM; GI50 [4]: > 100 µM; TGI [4]: > 100 µM; GI50 [5]: > 100 µM; TGI [5]: > 100 µM; GI50 [6]: > 100 µM; TGI [6]: > 100 µM; GI50 [7]: > 100 µM; TGI [7]: > 100 µM; GI50 [8]: > 100 µM; TGI [8]: > 100 µM; GI50 [9]: > 100 µM; TGI [9]: > 100 µM; GI50 [10]: > 100 µM; TGI [10]: > 100 µM; GI50 [11]: > 100 µM; TGI [11]: > 100 µM; GI50 [12]: > 100 µM; TGI [12]: > 100 µM; GI50 [13]: > 100 µM; TGI [13]: > 100 µM; GI50 [14]: > 100 µM; TGI [14]: > 100 µM; GI50 [15]: > 100 µM; TGI [15]: > 100 µM; GI50 [16]: > 100 µM; TGI [16]: > 100 µM; GI50 [17]: > 100 µM; TGI [17]: > 100 µM; GI50 [18]: > 100 µM; TGI [18]: > 100 µM; GI50 [19]: > 100 µM; TGI [19]: > 100 µM; GI50 [20]: > 100 µM; TGI [20]: > 100 µM; GI50 [21]: > 100 µM; TGI [21]: > 100 µM; GI50 [22]: > 100 µM; TGI [22]: > 100 µM; GI50 [23]: > 100 µM; TGI [23]: > 100 µM; GI50 [24]: > 100 µM; TGI [24]: > 100 µM; GI50 [25]: > 100 µM; TGI [25]: > 100 µM; GI50 [26]: > 100 µM; TGI [26]: > 100 µM; GI50 [27]: > 100 µM; TGI [27]: > 100 µM; GI50 [28]: > 100 µM; TGI [28]: > 100 µM; GI50 [29]: > 100 µM; TGI [29]: > 100 µM; GI50 [30]: > 100 µM; TGI [30]: > 100 µM; GI50 [31]: > 100 µM; TGI [31]: > 100 µM; GI50 [32]: > 100 µM; TGI [32]: > 100 µM; GI50 [33]: > 100 µM; TGI [33]: > 100 µM; GI50 [34]: > 100 µM; TGI [34]: > 100 µM; GI50 [35]: > 100 µM; TGI [35]: > 100 µM; GI50 [36]: > 100 µM; TGI [36]: > 100 µM; GI50 [37]: > 100 µM; TGI [37]: > 100 µM; GI50 [38]: > 100 µM; TGI [38]: > 100 µM; GI50 [39]: > 100 µM; TGI [39]: > 100 µM; GI50 [40]: > 100 µM; TGI [40]: > 100 µM; GI50 [41]: > 100 µM; TGI [41]: > 100 µM; GI50 [42]: > 100 µM; TGI [42]: > 100 µM; GI50 [43]: > 100 µM; TGI [43]: > 100 µM; GI50 [44]: > 100 µM; TGI [44]: > 100 µM; GI50 [45]: > 100 µM; TGI [45]: > 100 µM; GI50 [46]: > 100 µM; TGI [46]: > 100 µM; GI50 [47]: > 100 µM; TGI [47]: > 100 µM; GI50 [48]: > 100 µM; TGI [48]: > 100 µM; GI50 [49]: > 100 µM; TGI [49]: > 100 µM; GI50 [50]: > 100 µM; TGI [50]: > 100 µM
